The chains behind the UniProt entries cited, without tags or fusion partners.
UniProt O77680, whole entry: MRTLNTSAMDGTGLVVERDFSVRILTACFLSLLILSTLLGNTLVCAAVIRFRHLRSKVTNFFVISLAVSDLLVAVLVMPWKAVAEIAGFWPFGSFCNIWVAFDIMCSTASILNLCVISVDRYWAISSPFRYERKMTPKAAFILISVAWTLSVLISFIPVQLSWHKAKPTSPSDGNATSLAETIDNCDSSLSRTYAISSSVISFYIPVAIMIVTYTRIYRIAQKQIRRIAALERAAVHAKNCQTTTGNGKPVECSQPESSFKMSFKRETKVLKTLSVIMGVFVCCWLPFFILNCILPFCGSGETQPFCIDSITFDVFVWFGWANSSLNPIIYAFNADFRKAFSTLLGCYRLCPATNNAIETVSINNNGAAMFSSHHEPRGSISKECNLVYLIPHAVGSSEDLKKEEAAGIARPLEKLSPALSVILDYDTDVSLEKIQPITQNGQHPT
UniProt P21728, whole entry: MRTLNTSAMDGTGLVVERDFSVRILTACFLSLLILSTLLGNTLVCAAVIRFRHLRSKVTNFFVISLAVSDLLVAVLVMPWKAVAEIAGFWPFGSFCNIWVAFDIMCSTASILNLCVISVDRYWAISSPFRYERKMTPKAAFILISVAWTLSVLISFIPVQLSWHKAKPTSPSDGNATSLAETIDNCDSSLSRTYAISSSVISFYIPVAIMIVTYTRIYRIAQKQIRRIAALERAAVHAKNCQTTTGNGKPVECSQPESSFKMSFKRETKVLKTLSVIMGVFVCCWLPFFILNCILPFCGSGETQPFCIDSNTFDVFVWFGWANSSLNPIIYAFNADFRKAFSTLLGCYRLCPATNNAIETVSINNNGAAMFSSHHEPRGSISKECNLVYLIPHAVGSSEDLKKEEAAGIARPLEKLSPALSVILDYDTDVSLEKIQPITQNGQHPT

In patent US9359372B2, “Hexahydrodibenzo[a,g]quinolizine compound, preparation method thereof, pharmaceutical composition and use thereof” (SHANGHAI INSTITUTE OF MATERIA MEDICA, CHINESE ACADEMY OF …, priority 2011, dated 2016):

Columns and labels:
dopamine D1 receptor = dopamine D1 receptor (Macaca mulatta (Rhesus macaque), UniProt O77680); test: Affinity on dopamine D1 receptor, competition with [3H] SCH23390; type: binding
Experimental: (1). Determination of the Affinity of Hexahydrodibenzo[a,g]Quinolizine Compound of General Formula I and Derivatives Thereof on Dopamine D1, Dopamine D2, 5-HT1A, and 5-HT2A Receptor.
1) The Experimental Method
Different concentrations (10^−5 M-10^−11 M) of the compound of the invention and corresponding isotope receptor ligand as well as receptor protein were loaded into the reaction tube and incubated in 30° C. water bath for 60 minutes. The reaction was terminated in a refrigerator. The reaction mixture was put in a Millipore filter (millipore) cell sample collector, filtered through suction filtration using GF/C glass fiber filter paper, and dried. The resulting sample was placed into 0.5 mL tube. 500 μL liquid scintillation fluid was added and intensity of radioactivity was determined by counting.
(1) Construction of receptor and materials for cell culture: Escherichia coli. DH5α strain; insect virus transfer vector pVL1393 plasmid; BaculoGold linear Chinese baculovirus DNA, purchased from ParMingen company; mkD1RcDNA; rD2R cDNA; various restriction endonucleases, TaqDNA polymerase, T4 ligase, etc., LB medium; insect cell culture TNM-FH.
(2) the Experimental Materials for Receptor Binding
Firstly, the above […] are dissolved in DMSO and then diluted with double distilled water to the appropriate concentration (10^−5 M-10^−11 M). […]

D1 receptor = D1 receptor (Homo sapiens (Human), UniProt P21728); test: [35S]GTPγS binding assay for D1 receptor; type: biochemical

SMILES	IC50 (dopamine D1 receptor) [nM]	Ki (dopamine D1 receptor) [nM]	D1 antagonist Imax % (D1 receptor) [%]
COc1cc2c(c(OC)c1OC)CN1CCc3cc(O)c(O)cc3C1C2 (racemic) [DC037027, (±)-2,3-bihydroxy-9,10,11-trimethoxy-5,8,13,13a-tetrahydro-6H-dibenzo[a,g]quinolizine]	1060	522	–
CN1CCc2cc(Cl)c(O)cc2[C@@H](c2ccccc2)C1 [SCH-23390, reference compound]	–	–	81.0 ± 2.7
